From ChEMBL document CHEMBL1156061, “Design and synthesis of substituted nicotinamides as inhibitors of soluble epoxide hydrolase” (Bioorg Med Chem Lett, 2009) come the findings set out here.

Protein sequences, listed by entry. Tags and fused reporters are not part of them. Lines headed by an entry give the natural chain unless they say otherwise; changes in a name come on top.
UniProt P80299: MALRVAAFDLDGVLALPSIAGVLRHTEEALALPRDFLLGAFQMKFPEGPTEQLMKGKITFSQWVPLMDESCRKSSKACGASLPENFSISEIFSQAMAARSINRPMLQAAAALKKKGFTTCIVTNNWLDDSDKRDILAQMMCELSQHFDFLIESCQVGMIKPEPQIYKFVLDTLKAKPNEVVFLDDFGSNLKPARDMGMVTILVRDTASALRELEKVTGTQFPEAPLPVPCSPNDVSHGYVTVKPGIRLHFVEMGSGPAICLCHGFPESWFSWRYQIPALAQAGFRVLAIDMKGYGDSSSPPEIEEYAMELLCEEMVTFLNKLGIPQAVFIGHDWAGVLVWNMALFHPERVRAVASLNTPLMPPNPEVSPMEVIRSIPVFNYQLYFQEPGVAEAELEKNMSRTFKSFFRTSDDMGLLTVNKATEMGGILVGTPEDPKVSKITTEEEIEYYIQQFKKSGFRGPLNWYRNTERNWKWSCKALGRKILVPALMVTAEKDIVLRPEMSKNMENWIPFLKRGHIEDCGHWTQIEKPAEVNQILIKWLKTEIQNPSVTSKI

The test addresses Bifunctional epoxide hydrolase 2 (Rattus norvegicus, UniProt P80299). As to the kind of experiment: Inhibition of rat sEH.

The compound `O=C(NCc1ccccc1Cl)c1ccc(OCCC(F)(F)F)nc1` gave an IC50 of 22 nM.

Broadly, the IC50 is the midpoint of a concentration-inhibition curve. The low end stands for greater potency in that assay, the high end for weaker potency in that assay.
